Measured values taken from paper PMC8605023 (Nature Communications, 2021).

T1: G3BP2 NTF2 domain, His-GST-tagged (human, UniProt Q9UN86 11-133)
T1 sequence (looked up): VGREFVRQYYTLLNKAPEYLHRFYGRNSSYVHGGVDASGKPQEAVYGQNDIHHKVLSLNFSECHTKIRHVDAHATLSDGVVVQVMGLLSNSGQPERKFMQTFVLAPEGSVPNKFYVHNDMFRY


What follows are binders tested against T1, G3BP2 NTF2 domain, His-GST-tagged. Details: both partners purified.

Binder | Kd [µM]
PVPPIEFGVSPKDSD (peptide, UniProt Q5JSZ5 1780-1794, looked up) [PRRC2B 1780-1794 peptide] | 10
PSKLPTFGAPEQLVD (peptide, UniProt Q14258 400-414, looked up) [TRIM25 400-414 peptide] | 46
NLQFGALQFGSEPV (peptide, UniProt Q14157 515-528, looked up) [UBAP2L 515-528 peptide] | 34
ESLPFSFGTLSSWELE (peptide, UniProt P35638 4-19, looked up) [DDIT3 4-19 peptide] | 14

The binders below were run against G3BP1 NTF2 domain (human, UniProt Q13283 11-133). Details: both partners purified.

Binder | IC50 [µM] | Ki [µM]
AQMQGPYNFIQDSMLD (N-terminal acetylation; C-terminal amidation) [CAPRIN1 peptide 364-379] | 46 | 
ESLPFSFGTLSSWELE (N-terminal acetylation) [DDIT3 peptide 4-19] | 44 | 14
PVPPIEFGVSPKDSDY (N-terminal acetylation; C-terminal amidation) [PRRC2B peptide 1780-1794] | 33 | 10
NLQFGALQFGSEPVY (N-terminal acetylation) [UBAP2L peptide 515-528] |  | 34
